scFv variants of Ab-14 (light chain) against a SARS-CoV-2 spike peptide

Data: MIT Lincoln Laboratory AlphaSeq set, Engelhart et al. 2022, doi:10.1038/s41597-022-01779-4, as distributed in FLAb.

Antigen: PDVDLGDISGINAS, a 14-residue peptide of the SARS-CoV-2 spike HR2 region.

Parent: Ab-14, a human scFv built as VH, a 15-residue (Gly4Ser)3 linker, VL. Only the CDRs of the light chain vary.
VH: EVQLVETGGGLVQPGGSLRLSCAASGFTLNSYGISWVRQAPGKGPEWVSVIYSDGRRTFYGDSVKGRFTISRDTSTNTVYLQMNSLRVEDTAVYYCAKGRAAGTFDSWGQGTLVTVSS
VL: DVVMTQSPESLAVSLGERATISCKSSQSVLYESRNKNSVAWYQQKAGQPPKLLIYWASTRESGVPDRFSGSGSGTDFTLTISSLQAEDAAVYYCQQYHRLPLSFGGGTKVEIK

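The starting antibody came from a phage panning campaign against this peptide. AAYL50 was designed without a model: most single CDR substitutions and a random sample of double and triple ones. Affinity was read by AlphaSeq, a pooled yeast mating assay with surface-displayed partners. Mating (16 h, 30 °C) was followed by selection of diploids and sequencing of their barcodes. Read counts were normalised to the haploid input and turned into Kd by a linear fit to BCL2-family pairs of known affinity, for each replicate. The assay was run in three technical replicates.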

Variants are written as CDR1, CDR2 and CDR3 of the light chain (limits as in the source). Parent: KSSQSVLYESRNKNSVA, WASTRES, QQYHRLPLS. Scale: log10 of Kd in nM, estimated from mating counts; low values are strong binders. A mean of the replicates is given; it leaves out those without a signal. An entry "n.d." has no value in the source: the pair was not observed among the diploids in that replicate. This suggests poor binding but is not conclusive.

CDR-L1,CDR-L2,CDR-L3,log10 Kd (nM) by replicate,"log10 Kd (nM), mean",control signals
KSSQSVLFESRMKNSVA,WASTRES,QQTHRLPLS,6.54 3.70 6.41,5.55,6 of 9 (4.82)
KSSQSPLYESRNANSVA,WASTRES,QQYHRLPLS,0.59 0.85 0.82,0.75,0 of 9
CSSQSVLYESRNKNSVA,WASTRES,QQYHRLPPS,2.24 2.42 2.12,2.26,0 of 9
KTSQSVLYCSRNKNSVA,WRSTRES,QQYHRLPLS,n.d. n.d. n.d.,n.d.,2 of 9 (4.62)
KSSQSVLYESRNKCSVA,WASTRES,QQYHRWPYS,n.d. n.d. n.d.,n.d.,0 of 9
KSSQPVLYESRNKNSVA,QASHRES,QQYHRLPLS,0.16 0.44 0.22,0.27,2 of 9 (4.32)
KSSQSVLYESRNKNSVA,WASRWES,QQYHRLHLS,n.d. n.d. n.d.,n.d.,2 of 9 (3.69)
RSSQSVLYESRNKNSVA,WASTRES,IQYKRLPLS,3.32 4.67 4.03,4.00,1 of 9 (3.31)
KSSQSVLYESRNENSVA,WYSTRES,QQYHRLPLP,n.d. 4.48 3.05,3.77,2 of 9 (4.06)
KSSQSVLYESRNKNSVA,WASTREY,QWYHRLPLE,1.42 1.44 1.76,1.54,0 of 9
KSSQSVLYESRNKRSVA,WWSTREE,QQYHRLPLS,n.d. n.d. n.d.,n.d.,0 of 9
KSSQSPLYEKRNKNSVA,WASTRES,QQYHRLPLK,1.94 1.78 1.98,1.90,8 of 9 (4.51)
KSSQSVLYESRPKNSVA,WAKTAES,QQYHRLPLS,6.06 n.d. n.d.,6.06,5 of 9 (3.94)
KSSGSVGYESRNKNSVA,WESTRES,QQYHRLPLS,1.41 1.56 1.79,1.59,2 of 9 (3.96)
KSAQSVLYESRNKNSVA,WAITREW,QQYHRLPLS,n.d. n.d. n.d.,n.d.,0 of 9
KSSQSVLYESRLKNSVA,WASVRES,QQYHRLPLS,0.55 0.75 0.73,0.67,5 of 9 (4.97)
KSSQGVLYESRQKNSVA,WASTRES,QQYHRLPSS,1.90 1.82 1.80,1.84,1 of 9 (3.84)
KSSQSVLYESRNKNSVA,VASTRES,QYYHRLPLS,n.d. n.d. n.d.,n.d.,0 of 9
KSSQSVLYESRNKNSVA,WASWRES,QQYHRLELS,n.d. n.d. n.d.,n.d.,0 of 9
KSSQSVLYESCNKNSVA,WASTRER,QQYKRLPLS,1.14 1.22 1.21,1.19,0 of 9
KSSTSVLYPSRNFNSVA,WASTRES,QQYHRLPLS,0.60 0.84 0.71,0.72,1 of 9 (3.42)
KSVQSVLYESRGKNSVA,WASQRES,QQYHRLPLS,0.88 1.12 1.08,1.03,4 of 9 (4.07)
KSSQSVLYESRNKNSSA,WASRRES,KQYHRLPLS,n.d. 3.67 4.65,4.16,2 of 9 (4.60)
KSSFSVLYESRNKNSVA,WASTRES,QQYHRSPLS,1.33 1.35 1.53,1.40,2 of 9 (4.98)
KSSQSVLYEHRNKNSVA,WESTRES,QQRHRLPLS,1.92 1.84 2.06,1.94,4 of 9 (4.56)
KSSQHVLYESRNKNHVA,WASTRES,QQYPRLPLS,n.d. n.d. 5.71,5.71,2 of 9 (4.68)
KSSQSVLYESRVKNSVA,WASTRKS,QQYHRLPLS,n.d. n.d. n.d.,n.d.,2 of 9 (3.86)
KSSSIVLYESRNKGSVA,WASTRES,QQYHRLPLS,n.d. n.d. n.d.,n.d.,0 of 9
ESSQSVLYWSRNKMSVA,WASTRES,QQYHRLPLS,3.62 3.90 5.28,4.27,5 of 9 (4.49)
KSSQRVLYESWNKNSVA,WASTRER,QQYHRLPLS,2.19 2.36 2.28,2.28,0 of 9
VSSQSVLYESRNKNSVA,GASTRES,QQYHRLPLA,-0.02 0.25 -0.01,0.07,4 of 9 (4.65)
TSSQSVLYESRNKNSVW,WASTRES,QQYPRLPLS,n.d. n.d. n.d.,n.d.,0 of 9
KSSQSPLYESRNKVSVA,WASTRES,QQYHDLPLS,n.d. n.d. n.d.,n.d.,1 of 9 (3.74)
KSSQHVDYESRNKNSVA,WASTRES,QQLHRLPLS,0.65 1.10 0.75,0.83,3 of 9 (4.05)
KSSQSVLYEWRNKNSVA,FASTRES,QQYHRLPPS,n.d. n.d. n.d.,n.d.,0 of 9
KSSFSVLYESREKNSVA,WASTRES,QQYHRLPLS,n.d. n.d. n.d.,n.d.,0 of 9
KSSQSVLYESRNMNSVA,WASTRES,QQYHRLPLS,0.50 0.57 0.65,0.57,0 of 9
KSSQSVLYESRNKNLVA,WASTRED,QQYHRLPLS,n.d. n.d. n.d.,n.d.,1 of 9 (4.20)
KSSQSVLYSSRNSNSVA,WGSTRES,QQYHRLPLS,0.55 0.64 0.65,0.62,5 of 9 (4.34)
ISSQSVLYESRNKNEVA,WASTREC,QQYHRLPLS,n.d. n.d. n.d.,n.d.,1 of 9 (2.73)
KSSQSVLYESRNKVSVA,WASTRES,QQYHRGPLS,4.48 n.d. n.d.,4.48,0 of 9
KTSQPVLYCSRNKNSVA,WASTRES,QQYHRLPLS,2.10 2.05 2.08,2.08,3 of 9 (4.38)
KSSQSVLTESRNKNSVA,WASTREH,QQYHRPPLS,2.35 2.12 1.67,2.05,2 of 9 (4.22)

For reference, 5 entries of the list once more:

{"CDR-L1": "KSSQSVLYESRNMNSVA", "CDR-L2": "WASTRES", "CDR-L3": "QQYHRLPLS", "log10 Kd (nM) by replicate": "0.50 0.57 0.65", "log10 Kd (nM), mean": "0.57", "control signals": "0 of 9"}
{"CDR-L1": "KSSQSVLYESRNKNLVA", "CDR-L2": "WASTRED", "CDR-L3": "QQYHRLPLS", "log10 Kd (nM) by replicate": "n.d. n.d. n.d.", "log10 Kd (nM), mean": "n.d.", "control signals": "1 of 9 (4.20)"}
{"CDR-L1": "KSSQSVLYESRNENSVA", "CDR-L2": "WYSTRES", "CDR-L3": "QQYHRLPLP", "log10 Kd (nM) by replicate": "n.d. 4.48 3.05", "log10 Kd (nM), mean": "3.77", "control signals": "2 of 9 (4.06)"}
{"CDR-L1": "KSSQSPLYESRNKVSVA", "CDR-L2": "WASTRES", "CDR-L3": "QQYHDLPLS", "log10 Kd (nM) by replicate": "n.d. n.d. n.d.", "log10 Kd (nM), mean": "n.d.", "control signals": "1 of 9 (3.74)"}
{"CDR-L1": "KSSQSVLYESRNKCSVA", "CDR-L2": "WASTRES", "CDR-L3": "QQYHRWPYS", "log10 Kd (nM) by replicate": "n.d. n.d. n.d.", "log10 Kd (nM), mean": "n.d.", "control signals": "0 of 9"}

In this assay the parent's reference entry averaged 0.65; its copy inside this library read 1.68. Three control strains display no target. For library AAYL50, 18% of the pairings with them gave a signal, with a median of 4.19 and one signal in twenty below 2.99, so weak values seen in few replicates may be background. Also given: how often the same scFv was detected with the empty control strains, with their mean in brackets.